Data taken from patent US9346770B2, “Compounds having activating effect on subtypes of peroxisome proliferator-activated receptors and its preparation method and uses” (ZHEJIANG HISUN PHARMACEUTICAL CO., LTD., priority 2010, dated 2016).

Sequences of proteins named here, by UniProt entry; tags and fusion partners are left off.
UniProt Q07869, whole entry, species assumed: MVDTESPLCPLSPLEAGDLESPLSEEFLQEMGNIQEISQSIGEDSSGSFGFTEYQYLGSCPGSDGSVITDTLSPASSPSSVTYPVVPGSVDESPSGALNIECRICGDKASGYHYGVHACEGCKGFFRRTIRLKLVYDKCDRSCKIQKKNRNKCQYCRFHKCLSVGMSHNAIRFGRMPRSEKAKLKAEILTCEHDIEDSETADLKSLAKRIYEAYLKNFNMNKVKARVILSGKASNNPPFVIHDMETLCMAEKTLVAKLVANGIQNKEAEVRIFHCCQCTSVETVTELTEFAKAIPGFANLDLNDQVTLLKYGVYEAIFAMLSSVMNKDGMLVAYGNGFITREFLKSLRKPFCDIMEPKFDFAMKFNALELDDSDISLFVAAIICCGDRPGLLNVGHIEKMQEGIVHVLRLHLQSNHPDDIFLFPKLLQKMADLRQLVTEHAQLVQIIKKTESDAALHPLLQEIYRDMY

Target: PPARα (Homo sapiens (Human), UniProt Q07869)
Assay: Nuclear receptor reporter gene (luciferase) screening model, PPARα activation in HepG2 cells
Format: cell-based
Design: key: Ia: in-activated
Source text: Using a reporter gene method, a screening model for screening a nuclear receptor agonist in living cells is designed on the basis of the principal that a nuclear receptor can activate transcription of its downstream gene after being activated. A reporter gene plasmid is constructed, in which the DNA binding sequence for the nuclear receptor (NRE) is inserted at the upstream of a luciferase gene, such that the expression of the luciferase gene is regulated by the nuclear receptor. The reporter gene plasmid is transferred into a cell simultaneously with the nuclear receptor. The nuclear receptor will be activated when a nuclear receptor agonist presents in the cell culture medium. The receptor being activated can induce the expression of the luciferase gene, while the amount of generated luciferase can be determined with its luminescent substrate. In this way, the intensity of activation of the nuclear receptor by the compound can be determined by observing the luminescence intensity. For the calibration of the experimental error caused by factors such as transfection efficiency, amount of inoculated cells, toxicity of the compound, etc, a GFP plasmid is co-transfected simultaneously as the internal reference. […] The experimental results are expressed as relative activation fold, with a value of 1 for the solvent control. […]

CN(CCOc1ccc(CC2SC(=O)NC2=O)cc1)c1ccccn1 (stereo not shown) [rosiglitazone, reference compound]
EC50 PPARα: Ia
